In patent US7341717B2, “Therapeutic targets for treatment of HCV infections, methods of treating HCV infections and compounds useful therefor” (priority 2001, dated 2008):

System: replicon cells
Experiment: Cytotoxic effects in replicon cells
Assay type: cell-based, human
Details: alone or both in combination
Excerpt: As a model system for HCV replication there were utilized three replicon cell lines provided by Prof. R. Bartenschlager (University of Heidelberg, Germany).

CC1=C(/C=C/C(C)=C/C=C/C(C)=C/C(=O)O)C(C)(C)CCC1 [all-trans-retinoic acid] was tested, and the severe cytotoxic effects was “neither observed”.
